Assay results: patent US12661410B2, “Compounds for targeted degradation of RET” (C4 Therapeutics, Inc., priority 2020, dated 2026)
Where two headings read alike, the source gives them in different places.

Protein sequences, listed by entry. Tags and fused reporters are not part of them. Lines headed by an entry give the natural chain unless they say otherwise; changes in a name come on top. Residues count along the entry.
UniProt P07949, 658-1114 G810R limits assumed: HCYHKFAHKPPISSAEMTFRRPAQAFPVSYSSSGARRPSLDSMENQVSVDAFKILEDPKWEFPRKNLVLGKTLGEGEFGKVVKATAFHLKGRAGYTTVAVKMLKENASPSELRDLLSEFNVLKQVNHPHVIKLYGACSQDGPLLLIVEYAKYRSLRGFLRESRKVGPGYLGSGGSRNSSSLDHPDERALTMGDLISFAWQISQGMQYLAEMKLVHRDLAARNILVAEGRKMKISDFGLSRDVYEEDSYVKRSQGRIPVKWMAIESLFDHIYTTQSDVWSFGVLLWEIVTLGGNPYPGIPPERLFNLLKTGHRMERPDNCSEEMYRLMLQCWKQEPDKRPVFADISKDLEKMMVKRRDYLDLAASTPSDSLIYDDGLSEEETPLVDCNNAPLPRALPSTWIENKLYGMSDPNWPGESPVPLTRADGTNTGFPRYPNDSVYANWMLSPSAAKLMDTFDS
UniProt P07949, 658-1114 limits assumed: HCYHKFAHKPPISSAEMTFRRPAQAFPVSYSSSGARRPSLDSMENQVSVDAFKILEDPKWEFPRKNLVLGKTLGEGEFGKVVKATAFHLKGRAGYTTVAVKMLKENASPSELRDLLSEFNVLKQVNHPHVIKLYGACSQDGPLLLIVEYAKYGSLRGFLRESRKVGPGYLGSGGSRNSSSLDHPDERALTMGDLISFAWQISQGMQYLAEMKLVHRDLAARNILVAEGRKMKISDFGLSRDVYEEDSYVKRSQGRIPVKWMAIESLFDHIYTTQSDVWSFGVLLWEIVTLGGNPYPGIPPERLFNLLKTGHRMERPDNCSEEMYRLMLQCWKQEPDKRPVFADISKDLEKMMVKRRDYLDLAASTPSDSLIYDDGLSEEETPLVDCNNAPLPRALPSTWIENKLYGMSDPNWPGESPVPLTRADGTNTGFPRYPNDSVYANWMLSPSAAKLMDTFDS

Legend:
[1] = molecular target: RET(KD: 658-1114 G810R) (Homo sapiens, UniProt P07949, G810R); assay: HiBiT-Degradation, RET G810R degradation assay (Nano-Glo HiBiT Lytic), 293T.165 cells
Excerpt: (§1) Dulbecco's modified Eagle medium (DMEM) no-phenol red media and fetal bovine serum (FBS) were purchased from Gibco (Grand Island, NY, USA). Cell lines ectopically expressing wild-type or G810R RET kinase domain fused with a HiBiT tag were generated in-house (293T. 144 and 293T. 165, respectively). Cell culture flasks and 384-well microplates were acquired from VWR (Radnor, PA, USA). The Nano-Glo® HiBiT Lytic Assay System was purchased from Promega (Madison, WI, USA).
(§2) RET wild-type (WT) and G810R degradation were assessed using the Nano-Glo® HiBiT Lytic assay (Promega, Medison, WI, USA). To determine the effect of degraders on protein levels, cells were plated in 384-well plates and treated with compounds of interest in duplicates for 6 hours using an 11-point half-log dilution series, with the highest dose set at 10 μM. Cell lysis and addition of the Nano-Glo® HiBiT Lytic Assay reagents was then performed. Luminescence signal was measured using an EnVision™ Multimode plate reader (Perkin Elmer, Santa Clara, CA, USA). The half-maximal degradation concentration (DC50) and % remaining protein (Emax) was then derived from the dose-response curves.

[2] = molecular target: RET (658-1114) (Homo sapiens, UniProt P07949); assay: HiBiT-Degradation, RET wild-type degradation assay (Nano-Glo HiBiT Lytic), 293T.144 cells
Excerpt: as §1, §2

[3] = half-maximal degradation concentration
[4] = read-out: 293T.144 RET (658-1114) 6.0 hours (DC50), half-maximal degradation concentration

| SMILES | 293T.165 RET(KD: 658-1114 G810R) 6.0 hours (IP) [nM] [1] | 293T.165 RET(KD: 658-1114 G810R) 6.0 hours (Emax) ([1]; % remaining protein) | 293T.165 RET(KD: 658-1114 G810R) 6.0 hours (DC50) [nM] [1, 3] | 293T.144 RET (658-1114) 6.0 hours (IP) [nM] [2] | 293T.144 RET (658-1114) 6.0 hours (Emax) ([2]; % remaining protein) | DC50 [2, 4] [nM] | 293T.165 RET(KD: 658-1114 G810R) 6.0 hours (DC50) [nM] ([1]; HiBiT-Degradation) | 293T.165 RET(KD: 658-1114 G810R) 6.0 hours (Emax) ([1]; HiBiT-Degradation) | 293T.165 RET(KD: 658-1114 G810R) 6.0 hours (IP) [nM] ([1]; HiBiT-Degradation) | 293T.144 RET (658-1114) 6.0 hours (Emax) ([2]; HiBiT-Degradation) | 293T.144 RET (658-1114) 6.0 hours (IP) [nM] ([2]; HiBiT-Degradation) | DC50 ([2]; read-out: 293T.144 RET (658-1114) 6.0 hours (DC50), HiBiT-Degradation) [nM] |
| --- | --- | --- | --- | --- | --- | --- | --- | --- | --- | --- | --- | --- |
| COc1cc(N2CCN(C3CCC(n4cc(-c5cn6ncc(C#N)c6c(-c6ccc(N7CC8COCC(C7)N8C(=O)c7c(F)cccc7F)nc6)n5)cn4)CC3)CC2)c(F)cc1NC1CCC(=O)NC1=O (centres unmarked) | ++++ (<50 nM = ++++) | ++++ (<30% = ++++) | ++++ (<50 nM = ++++) | ++++ (<50 nM = ++++) | ++++ (<30% = ++++) | < 50 |  |  |  |  |  |  |
| CCC1(C(=O)NC2CCC2)CCN(c2ccc(-c3nc(-c4cnn([C@H]5CC[C@H](N6CCN(c7ccc8c(c7)CCN8[C@@H]7CCC(=O)NC7=O)CC6)CC5)c4)cn4ncc(C#N)c34)cn2)CC1 (single isomer, unassigned) | ++++ (<50 nM = ++++) | +++ (<50% = +++) | +++ (<100 nM = +++) | ++++ (<50 nM = ++++) | ++++ (<30% = ++++) | < 50 |  |  |  |  |  |  |
| CCC1(C(=O)NC(C)C)CCN(c2ccc(-c3nc(-c4cnn(C5CCN(C(=O)CC6(O)CCN(c7ccc(N[C@H]8CCC(=O)NC8=O)cc7Cl)CC6)CC5)c4)cn4ncc(C#N)c34)cn2)CC1 (single isomer, unassigned) |  | ++++ (<30% = ++++) | ++++ (<50 nM = ++++) |  |  |  | ++++ (< 50 nM = ++++) | ++++ (< 30% = ++++) | ++++ (< 50 nM = ++++) | ++++ (< 30% = ++++) | ++++ (< 50 nM = ++++) | < 50 |
